# Tests used:
# Sequences of proteins named here, by UniProt entry; tags and fusion partners are left off. A change or cut given only in a name is not applied to a line headed by its entry.
# UniProt P42338, whole entry: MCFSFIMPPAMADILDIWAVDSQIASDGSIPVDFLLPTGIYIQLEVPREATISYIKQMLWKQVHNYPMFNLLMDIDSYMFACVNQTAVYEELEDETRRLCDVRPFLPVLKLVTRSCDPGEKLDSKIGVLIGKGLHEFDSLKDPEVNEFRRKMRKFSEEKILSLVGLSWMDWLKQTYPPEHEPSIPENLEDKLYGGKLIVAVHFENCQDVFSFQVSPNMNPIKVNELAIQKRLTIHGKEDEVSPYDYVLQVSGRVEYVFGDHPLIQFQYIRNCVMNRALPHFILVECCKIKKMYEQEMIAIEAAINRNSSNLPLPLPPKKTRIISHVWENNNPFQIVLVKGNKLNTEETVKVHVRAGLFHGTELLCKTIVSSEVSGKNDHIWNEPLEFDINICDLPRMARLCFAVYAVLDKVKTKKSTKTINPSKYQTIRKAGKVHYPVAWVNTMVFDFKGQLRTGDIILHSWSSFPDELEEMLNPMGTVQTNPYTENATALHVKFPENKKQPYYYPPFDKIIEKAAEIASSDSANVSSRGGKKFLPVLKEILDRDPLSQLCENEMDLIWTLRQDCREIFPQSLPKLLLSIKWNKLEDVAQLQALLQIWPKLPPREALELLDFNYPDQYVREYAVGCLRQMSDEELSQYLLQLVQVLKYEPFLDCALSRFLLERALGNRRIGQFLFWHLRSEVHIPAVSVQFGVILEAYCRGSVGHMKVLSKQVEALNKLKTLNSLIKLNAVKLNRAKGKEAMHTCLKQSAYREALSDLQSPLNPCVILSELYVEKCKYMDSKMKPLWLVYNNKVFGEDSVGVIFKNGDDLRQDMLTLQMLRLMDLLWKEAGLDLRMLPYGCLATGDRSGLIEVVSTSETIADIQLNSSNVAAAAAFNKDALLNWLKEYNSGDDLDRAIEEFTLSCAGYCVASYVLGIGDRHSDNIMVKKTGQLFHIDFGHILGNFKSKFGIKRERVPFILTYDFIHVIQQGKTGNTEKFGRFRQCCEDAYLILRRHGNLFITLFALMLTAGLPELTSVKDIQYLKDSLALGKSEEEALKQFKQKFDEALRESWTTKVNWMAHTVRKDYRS
# UniProt O00329, whole entry: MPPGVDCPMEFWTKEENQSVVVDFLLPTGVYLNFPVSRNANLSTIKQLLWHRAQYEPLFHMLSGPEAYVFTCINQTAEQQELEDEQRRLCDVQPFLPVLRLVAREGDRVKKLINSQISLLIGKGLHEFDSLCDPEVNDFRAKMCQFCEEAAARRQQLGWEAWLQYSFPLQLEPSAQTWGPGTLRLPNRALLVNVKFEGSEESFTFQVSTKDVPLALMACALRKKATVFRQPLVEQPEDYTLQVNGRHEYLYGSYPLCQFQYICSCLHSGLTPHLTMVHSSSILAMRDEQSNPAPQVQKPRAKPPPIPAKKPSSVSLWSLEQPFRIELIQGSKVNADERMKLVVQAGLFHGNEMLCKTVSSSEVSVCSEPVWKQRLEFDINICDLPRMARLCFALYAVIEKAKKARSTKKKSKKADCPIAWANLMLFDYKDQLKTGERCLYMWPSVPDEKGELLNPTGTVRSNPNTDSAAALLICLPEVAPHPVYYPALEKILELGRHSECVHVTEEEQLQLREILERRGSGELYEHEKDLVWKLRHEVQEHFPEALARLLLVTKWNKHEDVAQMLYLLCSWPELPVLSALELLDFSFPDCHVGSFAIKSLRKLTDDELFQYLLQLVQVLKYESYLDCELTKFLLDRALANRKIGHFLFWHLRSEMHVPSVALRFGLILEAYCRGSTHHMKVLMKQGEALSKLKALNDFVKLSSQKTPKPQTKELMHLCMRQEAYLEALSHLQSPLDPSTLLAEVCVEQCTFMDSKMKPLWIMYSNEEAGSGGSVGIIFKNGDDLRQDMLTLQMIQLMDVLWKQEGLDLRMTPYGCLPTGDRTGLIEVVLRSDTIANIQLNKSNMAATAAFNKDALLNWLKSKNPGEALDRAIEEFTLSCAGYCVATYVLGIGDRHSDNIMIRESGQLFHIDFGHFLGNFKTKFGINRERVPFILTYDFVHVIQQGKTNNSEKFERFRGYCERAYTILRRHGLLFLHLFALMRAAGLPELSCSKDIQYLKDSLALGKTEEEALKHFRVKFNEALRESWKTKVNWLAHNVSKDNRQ
# UniProt P27986, whole entry partner: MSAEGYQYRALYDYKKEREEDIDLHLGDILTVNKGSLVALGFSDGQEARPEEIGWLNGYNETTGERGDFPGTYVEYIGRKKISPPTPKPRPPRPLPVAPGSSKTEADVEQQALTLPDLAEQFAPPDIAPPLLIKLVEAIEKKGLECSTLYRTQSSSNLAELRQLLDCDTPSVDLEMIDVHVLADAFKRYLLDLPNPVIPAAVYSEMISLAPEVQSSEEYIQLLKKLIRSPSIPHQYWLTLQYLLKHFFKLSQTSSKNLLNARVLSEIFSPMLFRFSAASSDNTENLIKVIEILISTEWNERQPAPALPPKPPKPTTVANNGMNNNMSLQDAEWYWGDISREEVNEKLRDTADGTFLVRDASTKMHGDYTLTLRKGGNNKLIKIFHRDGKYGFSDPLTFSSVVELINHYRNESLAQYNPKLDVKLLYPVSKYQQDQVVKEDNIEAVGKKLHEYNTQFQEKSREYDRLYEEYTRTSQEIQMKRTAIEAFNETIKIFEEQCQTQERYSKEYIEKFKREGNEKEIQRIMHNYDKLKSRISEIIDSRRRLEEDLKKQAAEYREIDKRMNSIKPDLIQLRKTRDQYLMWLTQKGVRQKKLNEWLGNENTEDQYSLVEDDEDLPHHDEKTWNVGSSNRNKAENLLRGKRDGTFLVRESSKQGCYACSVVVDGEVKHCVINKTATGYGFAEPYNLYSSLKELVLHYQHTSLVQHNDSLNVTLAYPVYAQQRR
# [1] = target: p110β/p85α (Homo sapiens, UniProt P42338); assay: Transcreener KINASE Assay, kinase inhibition of p110β/p85α
# [2] = target: p110δ/p85α (Homo sapiens, UniProt O00329); assay: Transcreener KINASE Assay, kinase inhibition of p110δ/p85α; type: biochemical
compound,measurement,setting,value
C[S@@+]([O-])c1c[nH]c2ncnc(N3C[C@@H](C#N)C[C@H]3c3nn4ccc(Cl)c4c(=O)n3-c3ccccc3)c12,PI3Kβ IH % @ 1 uM,[1],22.4%
same,PI3Kδ IH % @ 1 uM,[2],97.1%

# — patent publication US20150291593A1, “NOVEL HETEROARYL AND HETEROCYCLE COMPOUNDS, COMPOSITIONS AND METHODS” (HUTCHISON MEDIPHARMA LIMITED, priority 2012, published 2015)
